From patent publication US20260191856A1 (priority 2022, published 2026)

What was measured:
MOR [1] = target: MOR (Mus musculus, UniProt P42866); assay: GTP turnover assay (GTPase-GLO) with purified MOR and Gi; type: biochemical; settings: for inhibition of fentanyl-induced GTP turnover: fentanyl (5 μM)
male C57BL/6J mice = assay: 55° C. warm-water tail-withdrawal assay (antinociception); type: in vivo, mouse; settings: fentanyl (0.4 mg/kg)
MOR [2] = target: MOR (Homo sapiens, UniProt P35372); assay: TRUPATH assay, Gi/o/z activation by orthosteric μOR agonists; type: cell-based; settings: in the presence of compound A3

SMILES | inhibition of fentanyl-induced GTP turnover (MOR [1]) | potentiation of naloxone antagonism of fentanyl-induced antinociception (male C57BL/6J mice) | decrease of observed potency of morphine, fentanyl, and met-enkephalin (MOR [2]) [fold] | effect on GTP turnover with other orthosteric ligands (MOR [1]; naloxone, MP, met-enkephalin, DAMGO, BU72)
CNC(=O)[C@@H](Cc1ccc(C)c(OC)c1)NC(=O)CSc1ccc2ccccc2c1-c1cncc(OCc2ccccc2)c1 | does not display full inhibition even at 20 μM | – | – | –
CNC(=O)C(Cc1ccc(C)c(OC)c1)NC(=O)CSc1ccc2ccccc2c1-c1cncc(OCc2ccccc2)c1 (racemic) [Compound A3, 2-(2-((1-(5-(benzyloxy)pyridin-3-yl)naphthalen-2-yl)thio)acetamido)-3-(3-methoxy-4-methylphenyl)-N-methylpropanamide] | potently inhibit fentanyl (5 μM)-induced GTP turnover | this effect was not observed against fentanyl (0.4 mg/kg)-induced antinociception | ≥ 10 | –
CNC(=O)[C@H](Cc1ccc(C#N)cc1)NCc1csc(-c2cccc(-c3ccc4cc(N)ccc4c3)c2)n1 [Compound A1] | – | – | – | enhances the efficacy of all orthosteric agonists
CNC(=O)[C@H](Cc1ccc(C)c(OC)c1)NC(=O)CSc1ccc2ccccc2c1-c1cncc(OCc2ccccc2)c1 [Compound B1, (S)-2-(2-((1-(5-(benzyloxy)pyridin-3-yl)naphthalen-2-yl)thio)acetamido)-3-(3-methoxy-4-methylphenyl)-N-methylpropanamide] | retains the ability to potently inhibit fentanyl (5 μM)-induced GTP turnover | – | – | –
